Experimental data taken from ChEMBL document CHEMBL5537193, “Multitargeting HDAC Inhibitors Containing a RAS/RAF Protein Interfering Unit” (J Med Chem, 2024).

Molecular target: T1, Polyamine deacetylase HDAC10 (Homo sapiens, UniProt Q969S8)
T1 sequence (Q969S8 whole entry): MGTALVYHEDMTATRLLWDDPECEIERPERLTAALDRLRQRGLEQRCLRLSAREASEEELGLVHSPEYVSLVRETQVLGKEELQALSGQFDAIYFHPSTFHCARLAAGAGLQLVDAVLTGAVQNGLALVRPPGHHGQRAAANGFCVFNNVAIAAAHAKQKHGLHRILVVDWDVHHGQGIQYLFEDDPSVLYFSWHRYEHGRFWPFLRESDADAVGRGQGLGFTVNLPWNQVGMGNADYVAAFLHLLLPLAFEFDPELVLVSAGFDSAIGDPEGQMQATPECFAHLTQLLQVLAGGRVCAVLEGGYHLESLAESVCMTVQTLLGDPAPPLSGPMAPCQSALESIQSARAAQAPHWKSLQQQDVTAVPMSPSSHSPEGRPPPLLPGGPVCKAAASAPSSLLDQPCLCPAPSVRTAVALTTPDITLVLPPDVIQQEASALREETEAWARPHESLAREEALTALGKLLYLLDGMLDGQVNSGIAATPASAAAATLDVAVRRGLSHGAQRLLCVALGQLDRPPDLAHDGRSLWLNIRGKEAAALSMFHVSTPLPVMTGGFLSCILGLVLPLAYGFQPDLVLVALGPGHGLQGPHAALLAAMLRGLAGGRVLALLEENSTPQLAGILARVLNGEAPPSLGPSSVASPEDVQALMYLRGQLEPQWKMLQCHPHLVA
Assay: Inhibition of HDAC10 (unknown origin)

IC50: 349 nM
SMILES: O=C(CCCCCCC(=O)Nc1ccccc1)NO [VORINOSTAT]
